In patent publication US4970206A, “Pyroglutamic acid esters used as dermal penetration enhancers for drugs” (Merck & Co., Inc., priority 1989, dated 1990):

Assay: Permeation enhancement of enalapril, clonidine and acyclovir using pyroglutamic esters
Type: in vitro ADME, Elaphae obsolete (black rat snake)
Conditions: no enhancer, n = 13
Protocol: In the examples given below, the permeation enhancement was determined using an in vitro diffusion cell procedure. The molts of adult Elaphae obsolete (black rat snake) was used as the model for stratum corneum membrane (R. Ibuki, Ph.D. Thesis, University of Kansas, 1985). The shed snake skin has great similarities to human skin in terms of thickness, composition of constituents and structure and has been proposed as the most suitable model for human stratum corneum for permeability studies.
Glass diffusion cells consisting of a donor and receptor cells separated by the shed snake skin membrane were assembled using circular O-ring joints held together by spring clamps. The exposed membrane surface area of the diffusion cell measured 1.8 cm^2. Before being mounted in the diffusion cell approximately 25 mg of an ointment containing the therapeutic agent and the penetration enhancer was carefully applied to the membrane and was spread over the desired area. The receptor side was filled with approximately 8.5 ml of buffer solution consisting of 1.5×10^-1 M NaCl, 5×10^-4 NaH2 PO4 and 2.0×10^-4 M Na2 HPO4 adjusted to pH 7.2 with NaOH. The diffusion cell was immersed vertically in a water bath maintained at 32°±1° C. […] The concentration of drug penetrated in each diffusion cell was measured using high pressure liquid chromatography. […]

## CCOC(=O)[C@H](CCc1ccccc1)N[C@@H](C)C(=O)N1CCC[C@H]1C(=O)O [Enalapril, reference compound]
  % delivered in 48 hrs ± SD: 0.9 ± 0.5%
